Reference: patent publication US5688767A, “Treatment of endotoxin-associated disorders with cationic peptides” (priority 1996, dated 1997)
Converted amounts (≈) assume the structure as drawn. Like-named read-outs stand apart in the source and are kept apart here.

Experiments:
E. coli = type: cell-based, Escherichia coli
Protocol: (§1) The minimum inhibitory concentrations of (MIC) of CEME, CEMA and melittin were determined for a number of different bacteria (Table 2). Briefly, cells were grown overnight at 37° C. in LB-S (Luria broth without any salt supplement) and diluted one in 10,000 in the same medium to give concentrations of about 10^4 to 10^5 CFU/ml. The broth dilutions were set up in a 96 well microtiter plate by putting 200 μl of LB-S containing the initial concentration of antibiotic or compound in column 1 and 100 μl of the same medium in columns 2-12. The compounds were diluted by taking 100 μl of broth from column 1 and mixing it with column 2, resulting in a one in two dilution. This was continued to column 10. Finally, 10 μl of bacteria were pipetted into columns 1-11, and the plates incubated overnight at 37° C. The next day the plates were scored for growth in the wells, and the MIC determined.
(§2) Bacteria included the Bort strain of E. coli (Bortolussi, et al., Inf. Immun., 25:293, 1979) that was originally derived from a case of neonatal meningitis, and which is therefore considered a relevant pathogenic strain to study, and the 0111:B4 strain of E. coli (kindly provided by Dr. D. Morrison) which is a standard source of endotoxin. (Kelly, et al., Inf. Immun., 59:4491, 1991). In addition, P. aeruginosa PA01 strain H103, P. aeruginosa M2, P. aeruginosa K799, Eschericha coli UB 1005, Enterobacter cloacae 218S, Salmonella typhimurium MS7953s, Klebsiella pneumoniae ATCC 13883, Xanthomonas maltophilia ATCC 13637, and Acinetobacter calcoacetious 8193 were employed. LPS was obtained from E. coli Bort by the technique of Westphal and Jann, (Westphal, et al., Acad. Press, Inc. NY., 5:83) and from P. aeruginosa H103 by the method of Darveau and Hancock, (Darveau, et al., J. Bacteriol, 155:831, […]). E. coli 0111:B4 LPS was purchased from Sigma.

P. aeruginosa H103 LPS = assay: Dansyl polymyxin (DPx) displacement from purified LPS; type: binding, Pseudomonas aeruginosa; settings: 2.5 μM DPx, 3 μg/ml LPS, 5 mM HEPES pH 7.2, average of at least three trials
Protocol: In this assay, DPx was incubated with LPS to saturate the binding sites and then, while polycationic compounds are titrated into the reaction, displacement of the DPx was monitored by the decrease in fluorescence (FIG. 9). P. aeruginosa LPS was isolated as previously described (Darveau, et al., J of Bacteriology, 155:831, 1983) Dansyl polymyxin was synthesized as described by Schindler, et al., B. Antimicrobial Agents and Chemo, 8:95, 1975.
The method of Moore, et al., (Antimicrobial Agents and Chemo., 29:496, 1987), was used to test how much DPx was needed to saturate the binding sties on LPS. Briefly, 5 μl samples of 100 μM DPx were titrated sequentially into 1 ml of 3 μg/ml of LPS until a maximum fluorescence was reached. The fluorescence was measured in a Perkin-Elmer 650-10S fluorescence spectrophotometer with an excitation wavelength of 340 nm and an emission wavelength of 485 nm using slit widths of 5 nm. […] For the binding inhibition assays (Moore, et al., Antimicrobial Agents and Chemo., 29:496, 1987), 2.5 μM DPx was added to 3 μg/ml of H103 LPS in 5 mM HEPES pH 7.2. The test compounds were added 5 μl at a time and the decrease in fluorescence due to displacement of the DPx from the LPS was recorded.
When the data was plotted as a double reciprocal plot (FIG. 10), the X-intercept provided a value that is equal to -1/I50.

[1] = tested on: P. aeruginosa H309 Whole Cells; assay: DPx binding inhibition using whole cells; design: species or system Pseudomonas aeruginosa; settings: DPx at 90-100% binding saturation, average of at least three trials
Protocol: For DPx binding inhibition assays using whole cells instead of purified LPS, H309 cells were prepared the same way as for the lysozyme lysis assay. The assay consisted of 10 μl of cells at an OD600 of 0.5, 990 μl of 5 mM HEPES pH 7.2 and 5 mM KCN, and the concentration of DPx that gave 90-100% binding saturation. […] Compounds were titrated in, and I50 values were determined as described above.

S. aureus = type: cell-based, Staphylococcus aureus
Protocol: as §1

E. cloacae = type: cell-based, Enterobacter cloacae; settings: strain 218S, Parent of 218R1 (Table 2)
Protocol: as §1
(§3) Bacteria included the Bort strain of E. coli (Bortolussi, et al., Inf. Immun., 25:293, 1979) that was originally derived from a case of neonatal meningitis, and which is therefore considered a relevant pathogenic strain to study, and the 0111:B4 strain of E. coli (kindly provided by Dr. D. Morrison) which is a standard source of endotoxin. (Kelly, et al., Inf. Immun., 59:4491, 1991). […]

S. typhimurium = type: cell-based, Salmonella typhimurium
Protocol: as §1, §3

P. AERUGINOSA H309 = type: cell-based, Pseudomonas aeruginosa
Protocol: as §1, with “Briefly,” for “The minimum inhibitory concentrations of (MIC) of CEME, CEMA and melittin were determined for a number of different bacteria (Table 2). Briefly,”

P. aeruginosa = type: cell-based, Pseudomonas aeruginosa
Protocol: as §1, §2

For `CC[C@H](C)[C@H](NC(=O)CN)C(=O)NCC(=O)N[C@@H](C)C(=O)N[C@H](C(=O)N[C@@H](CC(C)C)C(=O)N[C@@H](CCCCN)C(=O)N[C@H](C(=O)N[C@@H](CC(C)C)C(=O)N[C@H](C(=O)N[C@H](C(=O)NCC(=O)N[C@@H](CC(C)C)C(=O)N1CCC[C@H]1C(=O)N[C@@H](C)C(=O)N[C@@H](CC(C)C)C(=O)N[C@H](C(=O)N[C@@H](CO)C(=O)N[C@@H](Cc1c[nH]c2ccccc12)C(=O)N[C@H](C(=O)N[C@@H](CCCCN)C(=O)N[C@@H](CCCNC(=N)N)C(=O)N[C@@H](CCCCN)C(=O)N[C@@H](CCCNC(=N)N)C(=O)N[C@@H](CCC(N)=O)C(=O)N[C@@H](CCC(N)=O)C(N)=O)[C@@H](C)CC)[C@@H](C)CC)[C@@H](C)O)[C@@H](C)O)C(C)C)C(C)C` [Melittin, melittin], the MIC (E. coli; strain DC2, Polymyxin sensitive) was 4 µg/mL (≈ 1.41 µM), the MIC (E. coli; strain SC9251, Parent of SC9252) was 8 µg/mL (≈ 2.81 µM) and the MIC (E. coli; strain UB1005, Parent of DC2 (Table 2)) was 8 µg/mL (≈ 2.81 µM). For the same compound, the “I50, Value in μg/ml” value (P. aeruginosa H103 LPS) was 8.48 ± 1.44 µg/mL, the IC50 (P. aeruginosa H103 LPS; read-out: I50, Value in μM) was 2.97 ± 0.506 µM and the “I50, Value in μg/ml” value [1] was 1.37 ± 0.22 µg/mL. The IC50 ([1]; read-out: I50, Value in μM) was 0.48 ± 0.08 µM, the MIC (S. aureus; strain RN4220, Methicillin sensitive) was 8 µg/mL (≈ 2.81 µM) and the MIC (S. aureus; strain SAP0017, Methicillin resistant) was 8 µg/mL (≈ 2.81 µM). For the same compound, the MIC (E. cloacae) was 8 µg/mL (≈ 2.81 µM), the MIC (S. typhimurium; strain C587, Parent of C590) was 16 µg/mL (≈ 5.62 µM) and the MIC (S. typhimurium; strain C590, Defensin sensitive) was 8 µg/mL (≈ 2.81 µM). The MIC (P. AERUGINOSA H309; +5 mM Mg^++) was over 64 µg/mL, the MIC (P. AERUGINOSA H309; +80 mM Na^+) was 16 µg/mL (≈ 5.62 µM) and the MIC (P. AERUGINOSA H309; No addition) was 8 µg/mL (≈ 2.81 µM). It also gave an MIC (P. aeruginosa; strain H187, Parent of H188) of 8 µg/mL (≈ 2.81 µM), an MIC (P. aeruginosa; strain H188, Antibiotic sensitive) of 8 µg/mL (≈ 2.81 µM) and an MIC (P. aeruginosa; strain H309, Wildtype) of 8 µg/mL (≈ 2.81 µM).
